Measurements from US20060211073A1, “Assay for B-Raf activity based on intrinsic MEK ATPase activity” (priority 2005, published 2006).

The chains behind the UniProt entries cited, without tags or fusion partners.
UniProt P15056, whole entry, species assumed: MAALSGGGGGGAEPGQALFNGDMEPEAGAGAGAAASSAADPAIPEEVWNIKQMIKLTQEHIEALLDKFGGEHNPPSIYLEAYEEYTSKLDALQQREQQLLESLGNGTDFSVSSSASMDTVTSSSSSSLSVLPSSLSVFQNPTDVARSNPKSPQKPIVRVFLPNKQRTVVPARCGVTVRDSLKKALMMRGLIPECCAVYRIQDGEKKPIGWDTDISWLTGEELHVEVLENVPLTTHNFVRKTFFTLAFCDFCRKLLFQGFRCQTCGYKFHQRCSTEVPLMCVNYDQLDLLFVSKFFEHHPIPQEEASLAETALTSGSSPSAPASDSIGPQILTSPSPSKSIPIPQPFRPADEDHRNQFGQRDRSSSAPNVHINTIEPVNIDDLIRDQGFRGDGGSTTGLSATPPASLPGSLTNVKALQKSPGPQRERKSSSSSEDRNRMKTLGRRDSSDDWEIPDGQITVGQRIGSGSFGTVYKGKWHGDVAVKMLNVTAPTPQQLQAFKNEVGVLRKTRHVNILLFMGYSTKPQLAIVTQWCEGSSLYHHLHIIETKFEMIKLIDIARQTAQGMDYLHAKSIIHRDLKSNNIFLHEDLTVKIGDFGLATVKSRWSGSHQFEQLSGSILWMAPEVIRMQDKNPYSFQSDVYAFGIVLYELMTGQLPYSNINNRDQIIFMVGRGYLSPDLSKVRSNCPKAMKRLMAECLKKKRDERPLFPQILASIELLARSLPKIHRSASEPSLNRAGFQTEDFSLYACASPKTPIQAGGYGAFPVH
UniProt P15056, whole entry V600E: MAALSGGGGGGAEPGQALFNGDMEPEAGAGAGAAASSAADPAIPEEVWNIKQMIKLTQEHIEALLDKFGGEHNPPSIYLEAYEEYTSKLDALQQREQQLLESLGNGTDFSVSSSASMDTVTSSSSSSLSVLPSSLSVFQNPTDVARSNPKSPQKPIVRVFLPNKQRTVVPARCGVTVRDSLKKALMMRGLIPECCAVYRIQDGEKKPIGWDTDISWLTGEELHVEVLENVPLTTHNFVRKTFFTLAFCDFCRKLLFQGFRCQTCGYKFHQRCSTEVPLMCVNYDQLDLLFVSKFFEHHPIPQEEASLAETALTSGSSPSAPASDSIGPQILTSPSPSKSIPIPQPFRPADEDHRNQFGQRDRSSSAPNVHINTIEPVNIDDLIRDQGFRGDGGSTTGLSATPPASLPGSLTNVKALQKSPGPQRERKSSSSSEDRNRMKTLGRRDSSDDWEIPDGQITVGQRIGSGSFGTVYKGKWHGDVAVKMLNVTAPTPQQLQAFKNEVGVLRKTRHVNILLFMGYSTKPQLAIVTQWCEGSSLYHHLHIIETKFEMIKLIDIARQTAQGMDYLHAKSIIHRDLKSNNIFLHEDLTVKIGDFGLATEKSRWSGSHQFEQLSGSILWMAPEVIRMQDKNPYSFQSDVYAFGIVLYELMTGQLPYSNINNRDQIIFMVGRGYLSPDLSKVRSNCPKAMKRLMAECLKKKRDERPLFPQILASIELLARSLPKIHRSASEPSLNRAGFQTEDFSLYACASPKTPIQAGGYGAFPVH

How the values were obtained:
[1] = target: B-Raf (Homo sapiens, UniProt P15056); settings: read-out: IC50, previously established value; King et al., supra; cited from earlier work
[2] = target: V600E B-Raf (Homo sapiens, UniProt P15056, V600E); assay: biochemical

Structure (SMILES): CN(C)CCOc1ccc(-c2nc(-c3ccncc3)c(-c3ccc4c(c3)CC/C4=N\O)[nH]2)cc1 [SB-590885]
- IC50 [1]: 0.6 nM
- IC50 [2]: 0.96 nM
